Assay outcomes (PubChem BioAssay)
Yeast UUG start-1: alters start codon recognition fidelity in yeast | S. cerevisiae UUG-firefly luciferase reporter, luminescence/redox ratio | activity score, % at 18.7 µM | 350,000 compounds, 0.13% hits | AID 602363;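 active = replicate mean at a twofold rise or more, about +100% in these data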;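 note: firefly luciferase made from a UUG start codon reports start codon fidelity; reporter light over untreated wells divided by growth signal over untreated wells; some hits fall short of that in this replicate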
Tn7 DDE FP: DD(E)-Tn7 binding inhibition, primary FP screen; FP displacement of FITC-Tn7 peptide from fibrin DD(E); 0% = median of compound wells per plate; 370,000 tested, 0.13% active; inhibition, % at 8.3 µM; P02675;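 active = inhibition above the mean of compounds falling within the control limits plus 3 SD of them, cut at about 14% in these data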
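Test system – human fibrin DD(E) · Times – 10 min preincubation, 3 h with tracer, room temperature · Detection – fluorescence polarization of the labelled Tn7 tracer · Measure – percent inhibition normalized to high-control wells · Benchmarks – high control wells with 10 µM unlabelled Aha-Tn7 peptide (full inhibition) · Repeats – singlicate testing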
Tn6 DDE FP: inhibitors of Tn6 peptide binding to human fibrin DD(E); P02675; AID 720509; inhibition, % at 8.3 µM; 370,000 tested, 0.21% active; Fibrin DD(E) TRITC-Tn6 fluorescence polarization displacement;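 active = inhibition above a per-campaign cutoff: mean of compounds within control limits plus 3 SD, cut at about 15% in these data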
PglD DTNB: blocks C. jejuni PglD acetyltransferase activity | purified PglD enzyme, DTNB colorimetric CoA detection | inhibition, % at 12.5 µM | 360,000 tested, 0.098% active | AID 602405; in the data active = inhibition above about 16%, passing the limit was not always enough; inconclusive = no clear call, values can overlap the other calls
Yeast UUG start-2: modulators of start codon recognition fidelity in yeast; 540 tested, under 10 active; S. cerevisiae UUG-start firefly luciferase, luminescence, 4 h; 100% means double the DMSO signal; activation, % at 38 µM; shares compounds with Yeast UUG start-1;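 active = signal increase whose fitted curve reaches an absolute level of 40 at a concentration under 10 µM; inactive = activity opposite to the expected increase, or the rest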
PglD confirm: blocks Campylobacter jejuni PglD acetyltransferase activity; 320 tested, under 10 active; shares compounds with PglD DTNB; inhibition, % at 20 µM; Purified C. jejuni PglD, DTNB absorbance 412 nm;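 active = mean inhibition across replicates of at least 20% with every single replicate also at 20% or more; inconclusive = mean inhibition at least 20% but some replicate falls below 20%; inactive = mean inhibition under 20% and not all replicates reach it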;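 also: initial rate of CoA release by acetyl transfer from AcCoA to the UDP-4-amino sugar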
DDE Tn6 FP ctr: counter-screen for inhibitors of Tn6 peptide binding to fibrin DD(E); shares compounds with Tn6 DDE FP; TRITC-Tn6 fluorescence polarization displacement; 0% = median of compound wells, not DMSO; 680 tested, 2% active; inhibition, % at 8.3 µM;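 active = inhibition above the mean of test compounds lying between the control limits plus 3 SD of those, cut at about 14% in these data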
Tn6 DDE conf: confirmation of inhibitors of Tn6 binding to human fibrin DD(E). inhibition, % at 8.3 µM. AID 720631. shares compounds with Tn6 DDE FP. 680 tested, 10% active. FP displacement of TRITC-Tn6 peptide from DD(E); 0% = per-plate median of test wells;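 active = inhibition above the mean of compounds lying within the control limits plus 3 SD, cut at about 16% in these data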
Each line names hits and unclear results; the compound was inactive in the other large screens (follow-up assays come after a bar, where they were run). The list is not random: actives were taken first. Their share in the collection is about 0.45%.

COCC#Cc1ccc2c(c1)O[C@H](CN(C)Cc1cccnc1)[C@@H](C)CN([C@@H](C)CO)S2(=O)=O	none (no result: Tn7 DDE FP, Tn6 DDE FP)
C/C=C/c1ccc2c(c1)O[C@@H](CN(C)Cc1cccc(F)c1)[C@@H](C)CN([C@H](C)CO)S2(=O)=O	Yeast UUG start-1 105 (no result: Tn7 DDE FP, Tn6 DDE FP) | Yeast UUG start-2 inactive
CCC(=O)N(C)C[C@@H]1Oc2cc(C#Cc3ccccc3)ccc2S(=O)(=O)N([C@H](C)CO)C[C@@H]1C	none (no result: Tn7 DDE FP, Tn6 DDE FP)
COCC#Cc1ccc2c(c1)O[C@@H](CN(C)Cc1cccnc1)[C@@H](C)CN([C@@H](C)CO)S2(=O)=O	Yeast UUG start-1 154 (no result: Tn7 DDE FP, Tn6 DDE FP) | Yeast UUG start-2 inactive
CCC(=O)N(C)C[C@@H]1Oc2cc(C#Cc3ccccc3)ccc2S(=O)(=O)N([C@@H](C)CO)C[C@@H]1C	Yeast UUG start-1 183 (no result: Tn7 DDE FP, Tn6 DDE FP) | Yeast UUG start-2 inactive
C1CN(c2nc3nonc3n3nnnc23)CCO1	Yeast UUG start-1 442 | Yeast UUG start-2 inactive
c1ccc2c(c1)nc(N1CCOCC1)c1nnnn12	none
COC(=O)c1ccccc1NC(=O)CNC(=O)c1ccc(OC)cc1	Yeast UUG start-1 264 | Yeast UUG start-2 inactive
COc1ccc(C(=O)Nc2ccccc2C(N)=O)cc1	none
COc1ccccc1C#Cc1ccc([C@H]2[C@H](CO)N3CCCCN(C(=O)C4CC4)C[C@@H]23)cc1	none (no result: Tn7 DDE FP, Tn6 DDE FP)
OC(C#CCN1CCCCCC1)(c1ccccc1)c1cccnc1 (stereo not given)	none (no result: Yeast UUG start-1, PglD DTNB) | Yeast UUG start-2 inactive
CC(C)C(O)(C#CCN1CCCC1)c1ccccc1 (stereo not given)	none (no result: Yeast UUG start-1, PglD DTNB) | Yeast UUG start-2 inactive
OC(C#CCN1CCCC1)(c1ccccc1)c1cccnc1 (stereo not given)	Yeast UUG start-1 134 | Yeast UUG start-2 inactive
CCCN(CC#CC(O)(c1ccccc1)c1cccnc1)CCC (stereo not given)	none (no result: Yeast UUG start-1, PglD DTNB) | Yeast UUG start-2 inactive
CCN(CC)CCC#CC(O)(c1ccccc1)c1ccccc1	none (no result: Yeast UUG start-1, PglD DTNB)
OC(C#CCCN1CCCCC1)(c1ccccc1)c1ccccc1	none
COc1ccc(CN(C)C[C@@H]2OCCCC[C@@H](C)Oc3ccc(N(C)C)cc3C(=O)N([C@H](C)CO)C[C@H]2C)cc1	none (no result: Tn7 DDE FP, Tn6 DDE FP)
CN1C[C@@H]2[C@H](c3ccccc31)[C@H](CO)N2C(=O)Nc1ccccc1	none (no result: Tn7 DDE FP, Tn6 DDE FP)
CN(CC(=O)Nc1cc([N+](=O)[O-])ccc1Cl)Cc1ccc(Br)cc1	Yeast UUG start-1 518 | Yeast UUG start-2 inactive
COc1ccccc1CC(=O)OC(C)C(=O)Nc1ccc(S(=O)(=O)N2CCCCC2)cc1 (stereo not given)	none | Yeast UUG start-2 inactive
COC(=O)Nc1ccc(S(=O)(=O)N2CCC(Cc3ccccc3)CC2)cc1	Yeast UUG start-1 462 | Yeast UUG start-2 inactive
Cc1ccc(S(=O)(=O)N[C@H]2CC[C@H](CCNC(=O)c3ccc4c(c3)OCO4)O[C@@H]2CO)cc1	none (no result: Tn7 DDE FP, Tn6 DDE FP)
Cc1ccc(S(=O)(=O)N[C@H]2CC[C@@H](CCNC(=O)c3ccc4c(c3)OCO4)O[C@@H]2CO)cc1	Yeast UUG start-1 170 (no result: Tn7 DDE FP, Tn6 DDE FP) | Yeast UUG start-2 inactive
COc1ccc(S(=O)(=O)N[C@H]2C=C[C@@H](CC(=O)NCCc3ccncc3)O[C@H]2CO)cc1	none (no result: Yeast UUG start-1, Tn7 DDE FP, Tn6 DDE FP)
CC12CCC(C(=O)N(CC(O)CN3CCN(Cc4ccccc4)CC3)C1=O)C2(C)C (stereo not given)	Yeast UUG start-1 102 | Yeast UUG start-2 inactive
O=C(NNc1c(Cl)cc(Cl)cc1Cl)c1n[nH]c(=O)c2ccccc12	Yeast UUG start-1 209 | Yeast UUG start-2 inactive
NNC(=O)c1n[nH]c(=O)c2ccccc12	none
COc1ccc(C2CCCN2C(=S)Nc2cccc(C)c2)cc1OC (stereo not given)	none (no result: Yeast UUG start-1, PglD DTNB)
COc1ccc(NC(=S)N2CCCC2c2ccc(OC)c(OC)c2)cc1 (stereo not given)	Yeast UUG start-1 339 | Yeast UUG start-2 inactive
C[C@@H]1CN([C@@H](C)CO)C(=O)c2cc(C#CCC3CCCC3)cnc2O[C@@H]1CN(C)C(=O)CN(C)C	Yeast UUG start-1 125 (no result: Tn7 DDE FP, Tn6 DDE FP) | Yeast UUG start-2 inactive
Cc1ccc(-c2cnc3c(c2)C(=O)N([C@@H](C)CO)C[C@@H](C)[C@H](CN(C)C(=O)CN(C)C)O3)cc1	Yeast UUG start-1 163 (no result: Tn7 DDE FP, Tn6 DDE FP) | Yeast UUG start-2 inactive
C[C@H]1CN([C@@H](C)CO)C(=O)c2cccc(NS(=O)(=O)c3ccc(Cl)cc3)c2O[C@@H]1CN(C)Cc1ccncc1	none (no result: Tn7 DDE FP, Tn6 DDE FP)
COc1ccc(C(C#N)N2CCC(c3ccccc3)=N2)cc1 (stereo not given)	Yeast UUG start-1 183 | Yeast UUG start-2 inactive
O=C(Cc1ccccc1)NC(NNc1ccccc1)(C(F)(F)F)C(F)(F)F	Yeast UUG start-1 481, Tn6 DDE FP 15 | Yeast UUG start-2 inactive | DDE Tn6 FP ctr 14 | Tn6 DDE conf inactive
C/C=C/c1cnc2c(c1)C(=O)N([C@@H](C)CO)C[C@H](C)[C@@H](CN(C)C(=O)NC1CCCCC1)O2	none (no result: Tn7 DDE FP, Tn6 DDE FP)
CCOC(=O)c1c2n(c3ccc(O)cc13)CCCCC2	PglD DTNB 25 | PglD confirm inactive
Cc1nn(Cc2ccccc2)c(Cl)c1/C=N/NC(=O)c1cccnc1	PglD DTNB 25 | PglD confirm inactive
O=C1CSC(c2cccnc2)N1Cc1cccnc1 (stereo not given)	PglD DTNB 23 | PglD confirm inactive
O=C1CSC(c2ccncc2)N1Cc1ccccc1 (stereo not given)	none (no result: Yeast UUG start-1, PglD DTNB)
Cc1ccc(S(=O)(=O)/N=C(/Nc2nc(C)cc(C)n2)N2CCOCC2)cc1	none
COc1ccc(N2CCN(/C(=N\S(=O)(=O)c3ccccc3)Nc3nc(C)cc(C)n3)CC2)cc1	PglD DTNB 26 | PglD confirm inactive
C[C@@H]1CN([C@@H](C)CO)C(=O)c2cc(NC(=O)C3CCCCC3)ccc2O[C@H]1CN(C)C(=O)NC1CCCCC1	none (no result: Yeast UUG start-1, Tn7 DDE FP, Tn6 DDE FP)
CCc1ccc(N=C2NC(=O)/C(=C/c3cc(Br)c(OCC(=O)O)c(OC)c3)S2)cc1	PglD DTNB 27 | PglD confirm 20
C[C@@H]1CN([C@@H](C)CO)S(=O)(=O)c2ccc(C#CC3CCCC3)cc2O[C@@H]1CN(C)C(=O)C1CC1	none (no result: Tn7 DDE FP, Tn6 DDE FP)
COc1ccc(S(=O)(=O)N(C)C[C@H]2OCCCC[C@H](C)Oc3ccc(NS(C)(=O)=O)cc3C(=O)N([C@H](C)CO)C[C@@H]2C)cc1	none (no result: Tn7 DDE FP, Tn6 DDE FP)
CCn1c(=O)cc(SCC(=O)N2CCOCC2)c2ccccc21	none
CCn1c(=O)cc(SCC(=O)N2CCN(c3ccccc3OC)CC2)c2ccccc21	PglD DTNB 33 | PglD confirm inconclusive
CCOc1ccc(-c2nnc(-c3cccs3)o2)cc1	PglD DTNB 27 | PglD confirm inactive
C(CCN1CCOCC1)CN1CCOCC1	none
